Literature values in patent US10131672B2, “Therapeutic or prophylactic agent for biliary diseases” (Toray Industries, Inc., priority 2010, dated 2018).

Chains of the proteins cited; added tags and fusions are not shown. Lines headed by an entry give the natural chain unless they say otherwise; changes in a name come on top.
UniProt P01210: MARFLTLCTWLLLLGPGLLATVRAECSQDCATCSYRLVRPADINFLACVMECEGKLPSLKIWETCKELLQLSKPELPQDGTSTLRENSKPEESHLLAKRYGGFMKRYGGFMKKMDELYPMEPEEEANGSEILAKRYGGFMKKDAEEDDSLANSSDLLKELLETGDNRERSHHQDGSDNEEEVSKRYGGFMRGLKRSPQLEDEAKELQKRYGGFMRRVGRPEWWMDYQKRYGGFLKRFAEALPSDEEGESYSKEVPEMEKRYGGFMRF

Tested on: sphincter of Oddi
Details: literature reports; cited from earlier work

Q: For “Leucine enkephalin (YGGFL; Leu-enkephalin; UniProt P01210 230-234, looked up) [endogenous δ opioid receptor agonist peptide]”, which “action on contraction of sphincter of Oddi” value is on record?
A: cause transient contraction of sphincter of Oddi, followed by showing a continuous contraction inhibition action
